Measurements published in patent publication US20200095644A1.

Amino acid sequences for entries named in this document (tags omitted). Residues count along the entry.
UniProt Q15116, 25-288 limits assumed: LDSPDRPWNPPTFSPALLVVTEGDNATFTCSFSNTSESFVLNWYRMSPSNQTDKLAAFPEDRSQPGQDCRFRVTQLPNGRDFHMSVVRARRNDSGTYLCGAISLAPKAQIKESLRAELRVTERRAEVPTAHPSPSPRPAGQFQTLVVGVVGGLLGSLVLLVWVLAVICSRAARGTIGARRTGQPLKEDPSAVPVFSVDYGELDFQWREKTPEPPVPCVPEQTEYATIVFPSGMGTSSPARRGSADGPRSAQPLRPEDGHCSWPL

Biological target: Human PD-1 on T cells from healthy blood donors (human) (UniProt Q15116)
Assay: cell-based or functional assay

Substance | reduction in T cell viability (propidium iodide exclusion, flow cytometry)
Human PD-L1 Isoform 5 (Soluble 1), recombinant, C-terminal HA tag (from UniProt Q9NZQ7 19-227) (ligand) | 10 to 20%
Human PD-L1 Isoform 6 (Soluble 2), recombinant, C-terminal HA tag (from UniProt Q9NZQ7 19-227) (ligand) | 10 to 20%
